Experiments:
D(3) dopamine receptor = D(3) dopamine receptor (Homo sapiens, UniProt P35462); experiment: Antagonist activity at human D3 receptor expressed in CHO cells co-expressing G0 by [35S]GTPgammaS binding assay; type: functional, cell-based
[1] = molecular target: Metabotropic glutamate receptor 2 (Homo sapiens, UniProt Q14416); experiment: Positive modulation of human mGluR2 expressed in CHO cells co-expressing Ga16 G-protein assessed as glutamate-induced response by FLIPR assay relative to glutamate; type: cell-based

The chains behind the UniProt entries cited, without tags or fusion partners. Where a name states a change or a piece, a line headed by the entry shows the natural chain unless it says otherwise.
UniProt P35462, whole entry: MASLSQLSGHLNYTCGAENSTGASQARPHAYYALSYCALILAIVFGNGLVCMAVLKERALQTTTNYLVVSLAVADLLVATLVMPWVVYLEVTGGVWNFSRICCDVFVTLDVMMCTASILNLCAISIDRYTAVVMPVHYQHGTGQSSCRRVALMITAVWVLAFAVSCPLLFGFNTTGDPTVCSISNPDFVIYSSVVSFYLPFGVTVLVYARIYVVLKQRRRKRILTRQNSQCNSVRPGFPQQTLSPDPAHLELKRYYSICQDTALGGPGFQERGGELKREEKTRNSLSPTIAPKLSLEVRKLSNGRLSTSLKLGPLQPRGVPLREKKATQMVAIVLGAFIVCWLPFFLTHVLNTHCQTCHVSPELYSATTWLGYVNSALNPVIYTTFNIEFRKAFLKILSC
UniProt Q14416: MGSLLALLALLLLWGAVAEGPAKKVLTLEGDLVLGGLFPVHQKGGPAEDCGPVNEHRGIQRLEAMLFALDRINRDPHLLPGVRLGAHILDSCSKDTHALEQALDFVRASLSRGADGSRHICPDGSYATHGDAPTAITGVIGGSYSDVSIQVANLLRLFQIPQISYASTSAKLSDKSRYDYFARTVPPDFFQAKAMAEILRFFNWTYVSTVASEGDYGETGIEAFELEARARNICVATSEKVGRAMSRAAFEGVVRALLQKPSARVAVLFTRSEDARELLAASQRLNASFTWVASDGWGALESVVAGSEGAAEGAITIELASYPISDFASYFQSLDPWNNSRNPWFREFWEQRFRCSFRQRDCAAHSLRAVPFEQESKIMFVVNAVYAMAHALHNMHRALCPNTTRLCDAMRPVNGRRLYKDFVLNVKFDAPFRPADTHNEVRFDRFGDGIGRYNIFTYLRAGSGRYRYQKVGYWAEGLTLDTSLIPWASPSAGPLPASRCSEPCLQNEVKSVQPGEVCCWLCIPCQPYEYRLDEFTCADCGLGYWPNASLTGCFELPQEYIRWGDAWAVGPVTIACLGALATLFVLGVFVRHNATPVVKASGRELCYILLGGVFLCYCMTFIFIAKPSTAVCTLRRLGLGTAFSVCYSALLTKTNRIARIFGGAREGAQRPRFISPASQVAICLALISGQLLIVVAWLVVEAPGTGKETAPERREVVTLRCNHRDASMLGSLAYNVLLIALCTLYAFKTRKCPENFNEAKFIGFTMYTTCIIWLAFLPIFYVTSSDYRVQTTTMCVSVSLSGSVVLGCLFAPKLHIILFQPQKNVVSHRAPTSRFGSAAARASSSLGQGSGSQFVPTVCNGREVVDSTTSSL

Question: Which Ki (D(3) dopamine receptor) does the source give for `Cn1c(CN2CCC(c3ccccc3F)CC2)nc2ccccc21` here?
Answer: Its Ki is 100 nM.

Question: What about the Emax [1] of the same molecule?
Answer: The Emax was 91%.
